The series concerns Alb-F8*R593C mice. The following applies: mouse, in vivo.

In the case of `CC(C)C[C@H](NC(=O)[C@H](Cc1ccccc1)NC(=O)c1cnccn1)B(O)O` [Bortezomib], the “VCN in sorted hepatocytes versus LV only” value was “no increase”, the “VCN of KC versus LV only” value is listed as “trend of decrease”, the “VCN of pDC versus LV only” value was “trend of decrease” and the “circulating hFVIII amounts versus LV only” value is given as “higher”.

(Values after patent US20250281645A1, “Lentiviral Vector” (Ospedale San Raffaele S.r.l., priority 2022, published 2025).)
